This is an account of results in ChEMBL document CHEMBL5329213, “Discovery of a novel GPR35 agonist with high and equipotent species potency for oral treatment of IBD” (Bioorg Med Chem, 2023).

Protein sequences, listed by entry. Tags and fused reporters are not part of them. Lines headed by an entry give the natural chain unless they say otherwise; changes in a name come on top.
UniProt Q9ES90: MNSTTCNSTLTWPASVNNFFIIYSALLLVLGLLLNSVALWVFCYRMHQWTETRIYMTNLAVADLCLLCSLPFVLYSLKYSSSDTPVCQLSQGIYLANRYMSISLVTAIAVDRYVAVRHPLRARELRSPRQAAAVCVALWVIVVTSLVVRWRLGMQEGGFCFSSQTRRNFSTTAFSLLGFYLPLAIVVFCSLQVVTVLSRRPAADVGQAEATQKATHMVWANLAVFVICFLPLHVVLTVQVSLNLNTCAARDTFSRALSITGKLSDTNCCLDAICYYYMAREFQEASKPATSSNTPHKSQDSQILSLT

Molecules are shown by their SMILES.

This test has as its target G-protein coupled receptor 35 (Mus musculus) (UniProt Q9ES90). Nature of the test: Agonist activity at mouse GPR35 expressed in HEK293 cells co-expressing Galpha16 assessed as increase in calcium mobilization by Fluo-4 AM dye based fluorescence assay relative to-iodoxamide. It counts as functional, cell-based. Particulars: filed as agonist.
As for `Cc1cc(NC(=O)C(=O)O)c(Cl)c(NC(=O)C(=O)O)c1`, the maximum response (Emax) came to 83%.

Take `N#Cc1cc(NC(=O)C(=O)O)cc(NC(=O)C(=O)O)c1`: the maximal effect (Emax) worked out at 123%.

With `O=C(O)C(=O)Nc1cc(C(F)(F)F)cc(NC(=O)C(=O)O)c1Cl`, the maximal effect (Emax) stood at 108%.

For `O=C(Nc1cc(C(F)(F)F)cc(NC(=O)C(=O)OC2CCC2)c1Cl)C(=O)OC1CCC1`, the maximal effect (Emax) is 96%.

As for `N#Cc1cc(NC(=O)C(=O)O)c(Cl)c(NC(=O)C(=O)O)c1` [LODOXAMIDE], the maximal effect (Emax) is 100%.

As for `COc1c(NC(=O)C(=O)O)cc(C#N)cc1NC(=O)C(=O)O`, the Emax was determined as 93%.

Turning to `O=C(Nc1cc(C(F)(F)F)cc(NC(=O)C(=O)OC2CCCCC2)c1Cl)C(=O)OC1CCCCC1`, the maximal effect (Emax) came to 86%.

Turning to `O=C(O)C(=O)Nc1cccc(NC(=O)C(=O)O)c1Cl`, the Emax was determined as 128%.

Regarding `CCOC(=O)C(=O)Nc1cccc(NC(=O)C(=O)OCC)c1Cl`, the maximum response (Emax) was 113%.

Take `CCOC(=O)C(=O)Nc1cc(Br)cc(NC(=O)C(=O)OCC)c1Cl`: the Emax is 110%.

Consider `CN(C)c1c(NC(=O)C(=O)O)cc(C#N)cc1NC(=O)C(=O)O`, for which the Emax came to 83%.

On to `CCOC(=O)C(=O)Nc1cc(C(=O)OCC(C)C)cc(NC(=O)C(=O)OCC)c1Cl`, for which the Emax amounted to 80%.

As to `COC(=O)C(=O)Nc1cc(C(F)(F)F)cc(NC(=O)C(=O)OC)c1Cl`, the maximal response (Emax) was determined as 90%.

Take `O=C(O)C(=O)Nc1cc(NC(=O)C(=O)O)cc(C(F)(F)F)c1`: the Emax was found to be 95%.

For `CCOC(=O)C(=O)Nc1cc(C(F)(F)F)cc(NC(=O)C(=O)OCC)c1Cl`, the Emax came to 99%.
